Each structure is given as a SMILES string. Only a part is listed here, and it is no random draw. Active and inactive are the calls of the source.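 The calls were made as follows: active = inhibition above 30% in each of the two pooled mixtures holding the compound, so the lower value exceeds 30%; inactive = the rest.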

The assay in a line: alternative complement pathway inhibitors, primary screen, biochemical, ELISA, human serum, orthogonally pooled compounds (AID 1235).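 Also: 0% = serum in Mg-EGTA without compound and 100% = EDTA serum blank.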 The conditions noted are these: LPS-coated ELISA, C3 deposition, tested in compound mixtures, at 5 µM, stronger effect = higher value. A digest of the protocol: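 Test system – human serum alternative complement pathway, C3 deposition on LPS-coated wells · Buffer or medium – diluted human serum in Mg2+-EGTA GVB++ · Compound dosing – 5 µM each compound, pools of ten, 50 µM per pool · Schedule – 1 h serum-compound exposure at 37 °C · Measured by – Anti-C3 ELISA, OD 450 nm · Read-out basis – percent inhibition of C3 deposition onto LPS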
Usually inhibition stands for the drop in the measured response relative to a control, in per cent. As for `CP(=O)(Oc1ccccc1)N1CCOC1=O` (stereo not drawn), the inhibition was inactive: 3.95%.

Take `COc1ccccc1OP(C)(=O)Nc1c(C)n(C)n(-c2ccccc2)c1=O` (stereo not drawn): the inhibition was inactive: -13.6%. With `CCN(CC)CC(O)COC(=O)C(O)(c1ccccc1)C1CCCCC1` (stereo not drawn) the figure was inactive: 2.46%; with `COc1ccccc1OP(C)(=O)Nc1ccc(C)c(C)c1` (stereo not drawn), inactive: 19%; with `Cc1nc2ccc3ccccc3c2o1.O=[N+]([O-])c1cc([N+](=O)[O-])c(O)c([N+](=O)[O-])c1`, inactive: 10.6%. Take `CP(=O)(Nc1ccccn1)Oc1ccccc1` (stereo not drawn): the inhibition is inactive: 2.58%. In the case of `CP(=O)(Nc1ccccc1F)Oc1ccccc1` (stereo not drawn), the inhibition is inactive: 7.99%. With `CN(C)CCOC(=O)C(O)(c1ccccc1)C1CCCCC1` (stereo not drawn) the figure was inactive: -1.99%.

Consider `CCOP(C)(=S)SCC(=O)NC(C)(CC)C(=O)O` (stereo not drawn), for which the inhibition was inactive: 10.7%. As for `Cc1ccccc1NP(C)(=O)Nc1ccccc1C`, the inhibition was inactive: -3.71%. As for `CP(=O)(Nc1ccc2c(c1)OCCO2)Oc1ccccc1` (stereo not drawn), the figure is inactive: 0.865%. With `Cc1nc2ccc3ccccc3c2s1.O=[N+]([O-])c1cc([N+](=O)[O-])c(O)c([N+](=O)[O-])c1` the figure was inactive: 0.92%.

Take `Cc1ccc(C)c(NP(C)(=O)Oc2ccccc2)c1` (stereo not drawn): the inhibition is inactive: 8.8%. As to `COc1ccccc1OP(C)(=O)Nc1ccc(C)cc1` (stereo not drawn), the inhibition was inactive: 5.92%. With `Cc1ccc(NP(C)(=O)Oc2ccccc2)c(C)c1` (stereo not drawn) the figure was inactive: 4.62%; with `CP(=S)(Nn1cnnc1)Oc1ccccc1` (stereo not drawn), inactive: -3.48%. As for `CP(=O)(NC(=O)Nc1ccccc1)Oc1ccccc1` (stereo not drawn), the figure is inactive: 3.82%; as for `CCOP(C)(=S)SCC(=O)NC(C)C(=O)O` (stereo not drawn), inactive: -12%.

These data come from PubChem BioAssay AID1235 (PCMD, 2008).
